From US10870874B2, “Binding fusion proteins, binding fusion protein-drug conjugates, XTEN-drug conjugates and methods of making and using same” (Amunix Pharmaceuticals, Inc., priority 2010, dated 2020)

Tests used:
SKOV3 tumor = test: In vivo fluorescence imaging of aHer2-XTEN conjugates (Table 27); parameters: species or system nu/nu mice; settings: single injection
Her2+ tumor = test: Ex vivo fluorescence imaging of tumors and tissues (Table 28); type: in vivo, nu/nu mice

Substance: Herceptin-AF680
- time of peak tumor binding post-administration (SKOV3 tumor): 8 h
- total fluorescence signals in tissues (tumor, heart, lungs, spleen, liver, kidneys) (Her2+ tumor; 72 hour, high dose groups): greatest signals in most tissues
- fluorescent signal in liver compared to aHer2-XTEN-864 Group 1 (Her2+ tumor; Group 7, 3.3 nmol): approximately double
